Assay outcomes from PubChem.
Shown are actives, neighbours in structure and some others; about 1.3% of the full set was active somewhere.
EWS-Fli inh = blocks EWS/Fli oncoprotein-driven transcription; AID 651661; A673 NR0B1-luciferase reporter, viability-normalised; inhibition, % at 12.6 µM; hit rate 0.67% among 350,000;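 active = mean inhibition of at least 50% after viability correction, with every replicate also passing that limit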;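 also: firefly luciferase signal divided by Alamar Blue viability fluorescence both relative to DMSO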
miR122 inh = blocks miR-122 activity in Huh7 sensor cells; Huh7 miR-122 Renilla luciferase sensor, 48 h; neutral wells = 0, positive control = 100; activation (reporter increase), % at 12.5 µM; hit rate 0.3% among 340,000;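 active = mean replicate activation score at least 90 and every replicate individually at or above 90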;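 also: higher luciferase means less miR-122 activity so hits act as miR-122 inhibitors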
F508del corr = correctors of CFTR F508del function in bronchial epithelial cells. CFBE cells, YFP halide quenching; stimulated with forskolin plus potentiator P3; % fluorescence drop versus neutral controls. activity (quench increase), % at 7.58 µM. hit rate 0.36% among 350,000;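 active = mean added fluorescence quench of at least 8% versus neutral control, with both replicates also reaching 8%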;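 also: cells transiently co-express mutant CFTR-F508del with the halide-sensitive YFP; corrector assay measuring rescue of mutant channel to the surface after 24 h compound exposure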
Yeast UUG start = alters start codon recognition fidelity in yeast | S. cerevisiae UUG-firefly luciferase reporter, luminescence/redox ratio | activity score, % at 18.7 µM | 350,000 compounds, 0.13% hits | AID 602363;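 active = replicate mean at a twofold rise or more, about +100% in these data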;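 note: firefly luciferase made from a UUG start codon reports start codon fidelity; reporter light over untreated wells divided by growth signal over untreated wells; some hits fall short of that in this replicate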
PglD inh = PglD (C. jejuni) enzyme inhibition; purified PglD enzyme, DTNB colorimetric CoA detection; inhibition, % at 12.5 µM; hit rate 0.098% among 360,000; in the data active = inhibition above about 16%, passing the limit was not always enough
LGR2 antag = blocks bursicon-induced cAMP signaling via Drosophila LGR2 | HEK293 LGR2, CRE-luciferase, bursicon-stimulated, 4 h | inhibition, % at 9.99 µM | AID 720647 | hit rate 0.35% among 380,000;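 active = drop in luminescence signal, shown as inhibition above about 50% in the replicate tests, limit read from the data, passing the limit was not always enough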;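 also: agonist challenge used bursicon conditioned medium at about half maximal strength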
Starred values were filed as active, the others as inactive; x = no result; [ ] = dose if it differs, or a comment.

[1] CN1C(=O)c2cc(NC(=O)NCc3ccccc3)ccc2OC[C@H]2O[C@@H](CC(=O)NCC3CCCCC3)CC[C@H]21
[2] COCCNC(=O)C[C@@H]1CC[C@@H]2[C@H](COc3ccc(NC(C)=O)cc3C(=O)N2C)O1
[3] COCCNC(=O)C[C@@H]1CC[C@H]2[C@@H](COc3ccc(NC(C)=O)cc3C(=O)N2C)O1
[4] CN1C(=O)c2cc(NC(=O)c3ccc(Cl)cc3)ccc2OC[C@H]2O[C@@H](CC(=O)NCc3cccc(F)c3)CC[C@H]21
[5] CN1C(=O)c2cc(NC(=O)NCc3ccccc3)ccc2OC[C@@H]2O[C@@H](CC(=O)NCC3CCCCC3)CC[C@@H]21
[6] C[C@@H]1CN([C@@H](C)CO)S(=O)(=O)c2ccc(C#CC3(O)CCCC3)cc2O[C@H]1CN(C)C
[7] CCc1cccc(C)c1NC(=O)CN(C)C1=NS(=O)(=O)c2ccccc21
[8] CN1C(=O)c2cc(NC(=O)Cc3cccs3)ccc2OC[C@@H]2O[C@H](CC(=O)NCc3ccc(-c4ccccc4)cc3)CC[C@@H]21

| screen / no. | 1 | 2 | 3 | 4 | 5 | 6 | 7 | 8 |
| --- | --- | --- | --- | --- | --- | --- | --- | --- |
| EWS-Fli inh | 7 | 2 | -5 | 4 | 7 | 1 | 2 | 12 |
| miR122 inh | 7[16.7 µM] | 8[16.7 µM] | 183*[16.7 µM] | -18[16.7 µM] | 120*[16.7 µM] | 13[16.7 µM] | -5 | 188*[16.7 µM] |
| F508del corr | -2 | -3 | -3 | 2 | 0 | 1 | 1 | -7 |
| Yeast UUG start | 3 | 0 | -5 | -17 | -11 | 8 | -19 | x |
| PglD inh | 1 | -1 | 2 | 1 | 2 | -2 | -5 | -2 |
| LGR2 antag | -7 | 1 | 10 | 3 | 5 | -12 | x | x |

[9] Cc1ccccc1NC(=O)Nc1ccc2c(c1)C(=O)N(C)[C@H]1CC[C@H](CC(=O)NCC3CC3)O[C@H]1CO2
[10] CN1C(=O)c2cc(NC(=O)Cc3ccccc3)ccc2OC[C@H]2O[C@@H](CC(=O)NCc3ccc(Cl)cc3)CC[C@@H]21
[11] CN1C(=O)c2cc(NC(=O)Cc3cccs3)ccc2OC[C@H]2O[C@H](CC(=O)NCc3ccc(-c4ccccc4)cc3)CC[C@@H]21
[12] CN1C(=O)c2cc(NC(=O)Cc3ccccc3)ccc2OC[C@@H]2O[C@H](CC(=O)NCc3ccc(Cl)cc3)CC[C@H]21
[13] CN1C(=O)c2cc(NC(=O)Cc3cccs3)ccc2OC[C@@H]2O[C@@H](CC(=O)NCC3CCCCC3)CC[C@@H]21
[14] COc1ccc(-c2oc3c(c2C#CC2(O)CCCCC2)C(OC)CCC3)cc1 (configuration not stated)
[15] CC(=O)c1c(C)nc(C)nc1NC(=O)C(C)C
[16] C=CCN=c1scc(-c2ccc(F)cc2)n1/N=C/c1ccccn1

| screen / no. | 9 | 10 | 11 | 12 | 13 | 14 | 15 | 16 |
| --- | --- | --- | --- | --- | --- | --- | --- | --- |
| EWS-Fli inh | 4 | 11 | 1 | -7 | 9 | -15 | x | -123 |
| miR122 inh | 228*[16.7 µM] | -50[16.7 µM] | -18[16.7 µM] | 3[16.7 µM] | 196*[16.7 µM] | x | -3 | x |
| F508del corr | 2 | 2 | -2 | 10* | 1 | 5 | x | 4 |
| Yeast UUG start | 16 | x | x | 11 | 3 | x | -10 | x |
| PglD inh | 0 | x | 4 | 0 | -1 | x | 7 | x |
| LGR2 antag | 5 | 6 | -5 | 12 | 7 | 4 | x | -57 |

[17] C=CCN=c1scc(-c2ccc3c(c2)NC(=O)CO3)n1/N=C(\C)c1ccccn1
[18] CC(C)c1ccc(CN2CCN(S(=O)(=O)c3ccc(Cl)s3)CC2)cc1
[19] O=S(=O)(c1ccc(Cl)s1)N1CCN(Cc2ccccc2)CC1
[20] COc1ccccc1C#Cc1ccc2c(c1)[C@H]1NCC[C@H]1[C@@H](CO)N2
[21] COc1cccc(NC(=O)NCCCN2CCN(c3ccc(F)cc3)CC2)c1
[22] CNC[C@@H](CC1CCCCC1)NC[C@H](CC(C)C)NCCc1cccc(C(F)(F)F)c1
[23] CCC[C@@H](CNC)NC[C@H](Cc1ccccc1)NCCCCc1ccccc1
[24] CNC[C@@H](Cc1ccccc1)NC[C@@H](CC1CCCCC1)NCCCc1ccccc1

| screen / no. | 17 | 18 | 19 | 20 | 21 | 22 | 23 | 24 |
| --- | --- | --- | --- | --- | --- | --- | --- | --- |
| EWS-Fli inh | 44 | 2 | x | 4 | x | 49 | 13 | 44 |
| miR122 inh | x | -8 | 0 | x | -5 | -22 | -17 | -21 |
| F508del corr | 8.7* | 30* | x | 0 | x | -2 | 0 | 2 |
| Yeast UUG start | x | 2 | 8 | x | -2 | 8 | -8 | -14 |
| PglD inh | x | 5 | -9 | x | 0 | -6 | 2 | -2 |
| LGR2 antag | 20 | -2 | 4 | -3 | x | 103* | 6 | 102* |

Molecules listed so far that have two or more sulfur atoms (two):
[18] CC(C)c1ccc(CN2CCN(S(=O)(=O)c3ccc(Cl)s3)CC2)cc1
[19] O=S(=O)(c1ccc(Cl)s1)N1CCN(Cc2ccccc2)CC1

| screen / no. | 18 | 19 |
| --- | --- | --- |
| EWS-Fli inh | 2 | x |
| miR122 inh | -8 | 0 |
| F508del corr | 30* | x |
| Yeast UUG start | 2 | 8 |
| PglD inh | 5 | -9 |
| LGR2 antag | -2 | 4 |

Continued.
[25] Cc1noc(C)c1NC(=O)N(C)C[C@@H]1Oc2ncc(/C=C/c3ccccc3)cc2C(=O)N([C@H](C)CO)C[C@H]1C
[26] Cc1noc(C)c1S(=O)(=O)N(C)C[C@H]1Oc2ccc(NC(=O)Cn3cnnn3)cc2CC(=O)N([C@@H](C)CO)C[C@H]1C
[27] O=C(CN(Cc1ccco1)Cc1ccco1)Nc1cc(S(=O)(=O)N2CCCCC2)ccc1Cl
[28] O=C(COC(=O)C1CCC1)Nc1cc(S(=O)(=O)N2CCOCC2)ccc1Cl
[29] COc1cc2c(cc1OC)CN(C(=O)c1ccc(OC)c(S(=O)(=O)N3CCCC3)c1)CC2
[30] C[C@H]1CN([C@@H](C)CO)C(=O)c2cc(NC(=O)c3ccncc3)ccc2O[C@H]1CN(C)CC1CCCCC1
[31] CS(=O)(=O)c1ccc(C(=O)NCCN2C(=O)S/C(=C\c3cccnc3)C2=O)cc1[N+](=O)[O-]
[32] COc1ccc(-c2ccc3oc(-c4ccc(OC)cc4)c(C#CCO)c3c2)cc1

| screen / no. | 25 | 26 | 27 | 28 | 29 | 30 | 31 | 32 |
| --- | --- | --- | --- | --- | --- | --- | --- | --- |
| EWS-Fli inh | 13 | -3 | 23 | -5 | -19 | -7 | 64* | -20 |
| miR122 inh | -4[16.7 µM] | -6[16.7 µM] | 1 | -4 | -1 | -6[16.7 µM] | x | x |
| F508del corr | 1 | -3 | 9.4* | 13* | -3 | 0 | -9 | 9.3* |
| Yeast UUG start | 6 | 2 | -21 | -5 | 4 | -6 | x | 0 |
| PglD inh | 0 | -2 | 3 | -1 | 0 | 0 | x | -4 |
| LGR2 antag | 14 | -12 | 16 | -14 | 5 | 27 | 69* | 28 |

2 records picked at random from the list so far, as already listed:
[27] O=C(CN(Cc1ccco1)Cc1ccco1)Nc1cc(S(=O)(=O)N2CCCCC2)ccc1Cl
[29] COc1cc2c(cc1OC)CN(C(=O)c1ccc(OC)c(S(=O)(=O)N3CCCC3)c1)CC2

| screen / no. | 27 | 29 |
| --- | --- | --- |
| EWS-Fli inh | 23 | -19 |
| miR122 inh | 1 | -1 |
| F508del corr | 9.4* | -3 |
| Yeast UUG start | -21 | 4 |
| PglD inh | 3 | 0 |
| LGR2 antag | 16 | 5 |

Continuation:
[33] COc1ccc(-c2oc3ccc(N4CCOCC4)cc3c2C#CCO)cc1
[34] FC(F)(F)c1cnc(NNC(=S)Nc2ccccc2)c(Cl)c1
[35] Clc1ccc(CSc2nncn2-c2ccc3c(c2)OCCO3)cc1
[36] CC(C)Cc1nc2oc3c(N4CCN(CCO)CC4)ncnc3c2c2c1CCCC2
[37] CCOC(=O)N1CCN(c2ncnc3c2oc2nc(C(C)C)c4c(c23)CCC4)CC1
[38] O=C(C[C@H]1C=C[C@H](NS(=O)(=O)c2ccccc2)[C@@H](CO)O1)N1CCN(c2ccccc2)CC1
[39] Cc1cccc(C(=O)OCC(=O)c2ccc3c(c2)OCO3)c1O
[40] O=C(COC(=O)c1ccccc1[N+](=O)[O-])c1ccc2c(c1)OCO2
[41] O=C(COC(=O)c1cccs1)c1ccc2ccccc2c1
[42] O=C(COC(=O)c1cccs1)c1ccc2c(c1)OCCO2
[43] COc1cccc(N2CCN(C(=O)c3ccc(CS(=O)Cc4ccc(C)cc4)o3)CC2)c1 (configuration not stated)

| screen / no. | 33 | 34 | 35 | 36 | 37 | 38 | 39 | 40 | 41 | 42 | 43 |
| --- | --- | --- | --- | --- | --- | --- | --- | --- | --- | --- | --- |
| EWS-Fli inh | 31 | 22 | 49 | x | x | -4 | -12 | -18 | x | -27 | -7 |
| miR122 inh | 1 | 0 | 17 | -5 | 207* | x | x | -6 | -10 | -4 | -1 |
| F508del corr | 2 | -1 | 11* | x | x | -1 | -1 | -2 | x | -5 | 2 |
| Yeast UUG start | -7 | -14 | -13 | -4 | -19 | x | -15 | -94 | -40 | -89 | 0 |
| PglD inh | 8 | 5 | -4 | -3 | 2 | x | -3 | 5 | 0 | -6 | -4 |
| LGR2 antag | 34 | 9 | -1 | x | x | 7 | -64 | 85* | x | 82* | 4 |
